The values below are quoted from earlier work in patent publication US20020193351A1, “Fungicidal and bactericidal compositions for plants containing phosphonate and phosphate salts, metal chelates, and derivatives thereof” (priority 1996, published 2002).

The test system of this series is plants. To be noted: foliar applications; cited from earlier work.

For the substance “iron ethylenediamine-di-o-hydroxyphenylacetic acid [Fe-EDDHA]”, the “Phytotoxicity rankings of Fe chelates” value was “least phytotoxic”.
